Measurements taken from article PMC11219871, “Epigenetic-based differentiation therapy for Acute Myeloid Leukemia” (Nature Communications, 2024).

What was measured:
Experiment in all cases: Cell proliferation assay: GI50
Assay type in all cases: cell-based, human
MV4-11 = tested on: MV4-11
HL-60 = tested on: HL-60
ML-2 = tested on: ML-2
MOLM-13 = tested on: MOLM-13

Measured: GI50

CCNC(=O)C[C@@H]1N=C(c2ccc(Cl)cc2)c2cc(OC)ccc2-n2c(C)nnc21 [Molibresib]
> 10 µM: MV4-11; Homo sapiens, MV4-11, 48 h | MV4-11; Homo sapiens, MV4-11, MV4-11, replicates 1-3, µM for the other inhibitors | MV4-11; MV4-11, replicates 1-3, µM for the other inhibitors | HL-60; HL-60, replicates 1-3, µM for the other inhibitors | HL-60; Homo sapiens, HL-60, 48 h | HL-60; Homo sapiens, HL-60, HL-60, replicates 1-3, µM for the other inhibitors | ML-2; Homo sapiens, ML-2, 48 h | ML-2; Homo sapiens, ML-2, ML-2, replicates 1-3, µM for the other inhibitors | ML-2; ML-2, replicates 1-3, µM for the other inhibitors | MOLM-13; Homo sapiens, MOLM-13, 48 h | MOLM-13; Homo sapiens, MOLM-13, MOLM-13, replicates 1-3, µM for the other inhibitors | MOLM-13; MOLM-13, replicates 1-3, µM for the other inhibitors
